Measured values: publication PMC4757823, “μ Opioid receptor: novel antagonists and structural modeling” (Scientific Reports, 2016)

Amino acid sequences for entries named in this document (tags omitted).
UniProt P35372, whole entry: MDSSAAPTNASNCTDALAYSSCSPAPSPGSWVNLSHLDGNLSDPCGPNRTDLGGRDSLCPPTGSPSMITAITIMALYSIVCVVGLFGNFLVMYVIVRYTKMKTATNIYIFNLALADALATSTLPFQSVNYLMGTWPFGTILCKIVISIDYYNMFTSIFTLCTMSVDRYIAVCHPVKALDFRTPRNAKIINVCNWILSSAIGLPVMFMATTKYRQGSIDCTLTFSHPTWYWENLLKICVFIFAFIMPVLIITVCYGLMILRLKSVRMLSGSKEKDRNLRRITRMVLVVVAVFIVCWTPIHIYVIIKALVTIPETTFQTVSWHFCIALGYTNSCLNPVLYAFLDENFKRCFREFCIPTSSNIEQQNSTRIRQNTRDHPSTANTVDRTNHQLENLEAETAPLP

What was measured:
human MOR [1] = molecular target: T1, human MOR (Homo sapiens, UniProt P35372); assay: [35S]GTPγS binding assay in CHO-hMOR cell membranes; type: biochemical; conditions: agonist mode
T1 construct: expressed in transfected cells; host or cells: CHO (Chinese hamster ovary) cells stably expressing human MOR; gift from Dr. Lawrence Toll, SRI International
Procedure: Determination of [^35S]GTPγS binding to CHO-hMOR cell membranes were performed as described previously. Cell membranes (5–10 μg protein), prepared as described for the radioligand MOR binding assay, were incubated in the absence or in the presence of test compound in the assay buffer (20 mM HEPES, 100 mM NaCl, 10 mM MgCl2, pH 7.4) containing [^35S]GTPγS (0.05 nM) and GDP (10 nM) in a total volume of 1.0 mL for 60 min at 25 °C. Nonspecific binding was determined using 10 μM GTPγS, and the basal binding was determined in the absence of test compound. Samples were filtered over glass fiber filters and counted as described for the radioligand binding assays. […]. The antagonist equilibrium dissociation constant Ke for 4 was calculated using the equation Ke = [a]/(DR − 1), where “a” is the concentration of antagonist. All experiments were performed in duplicate and repeated at least three times.

human MOR [2] = molecular target: T1, human MOR; assay: cAMP accumulation assay (GloSensor) in CHO-hMOR-p22F cells; type: cell-based
Procedure: Inhibition of the forskolin-stimulated intracellular cAMP accumulation in CHO cells co-expressing the hMOR and the cAMP biosensor GloSensor-22F (CHO-hMOR-p22F cells) was performed using the Glo-Sensor^TM cAMP assay (Promega), according to the manufacturer’s instructions. Cells were seeded in growth medium into 384-well plates at a density of 5,000 cells in 30 μL per well and incubated overnight. On the day of assay, culture media was removed, and cells were pre-equilibrated for 90 min with 4% v/v of the GloSensor cAMP reagent in reaction medium (20 mM HEPES, 1 × HBSS, pH 7.4) at 37 °C and 5% CO2. […]. Forskolin (10 μM) was added to each well, and luminescence was measured after 20 min. All experiments were performed in triplicate and repeated at least three times.

“[D-Ala^2, Me-Phe^4, Glyol^5]enkephalin [DAMGO, reference compound]” was tested, and the “stimulation of [35S]GTPγS binding” value (human MOR [1]) was “high potency and stimulatory effect” and the “inhibition of the forskolin-stimulated cAMP production” value (human MOR [2]) was “concentration-dependent inhibition”.
